Laboratory results from PubChem BioAssay AID504904 (The Scripps Research Institute Molecular Screening Center, 2011).
This is a selection; strong and weak results do not stand in their true shares. Some tests of the compounds listed are not included; inactive here does not mean inactive elsewhere. The source made the active and inactive calls. Rule as the data show it: active = activation above about 18%; inactive = the rest.

By UniProt entry, the sequences of proteins in these tests, tags left out.
UniProt P35372, whole entry, looked up: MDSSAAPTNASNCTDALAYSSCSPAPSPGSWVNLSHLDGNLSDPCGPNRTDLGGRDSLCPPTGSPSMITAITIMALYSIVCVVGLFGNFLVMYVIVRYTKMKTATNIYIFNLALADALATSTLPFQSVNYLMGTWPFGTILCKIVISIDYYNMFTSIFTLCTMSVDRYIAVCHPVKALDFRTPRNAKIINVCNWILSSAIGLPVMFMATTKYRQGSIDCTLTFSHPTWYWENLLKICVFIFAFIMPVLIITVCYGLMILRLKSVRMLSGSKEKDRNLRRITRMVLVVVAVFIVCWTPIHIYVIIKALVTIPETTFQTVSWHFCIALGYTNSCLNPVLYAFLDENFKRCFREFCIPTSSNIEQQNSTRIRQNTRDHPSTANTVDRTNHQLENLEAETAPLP
UniProt P41143, whole entry, looked up: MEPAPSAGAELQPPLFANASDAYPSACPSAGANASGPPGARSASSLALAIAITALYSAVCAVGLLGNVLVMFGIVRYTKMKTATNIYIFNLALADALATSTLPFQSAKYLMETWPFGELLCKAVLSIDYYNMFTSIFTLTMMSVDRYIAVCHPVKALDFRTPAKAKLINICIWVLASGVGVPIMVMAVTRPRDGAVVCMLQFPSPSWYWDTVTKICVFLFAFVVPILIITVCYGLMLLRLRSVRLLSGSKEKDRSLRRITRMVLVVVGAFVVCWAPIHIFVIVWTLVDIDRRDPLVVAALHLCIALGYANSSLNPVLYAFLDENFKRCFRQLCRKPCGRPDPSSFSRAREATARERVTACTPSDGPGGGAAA

Target: Mu-type opioid receptor (Homo sapiens) + Delta-type opioid receptor (Homo sapiens) (UniProt P35372+P41143)
Test: agonists of MOR-DOR heterodimerization, confirmation, cell-based, luminescence (AID 504904);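 also: 0% = vehicle-treated cells and 100% = reference agonist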
Settings: cells, luminescence complementation, at 9.3 µM, active compounds read high

CN(C)c1ccc(C(=O)NCC2(N(C)C)CCCCC2)cc1
activation: inactive: -3.1%
